Patent US9320722B2, “Regulators of aldehyde dehydrogenase ALDH3A1 and related therapeutic methods” (Indiana University Research and Technology Corporation, priority 2013, dated 2016)

system: SF767 cells; test: MTT assay for cell proliferation / mafosfamide sensitivity, SF767; format: cell-based; conditions: 10 μM inhibitor + mafosfamide

Question: Which “chemosensitivity to mafosfamide (in words), SF767” value (“chemosensitivity to mafosfamide” below) does the source give for `COc1cc(S(=O)(=O)n2c(C)nc3ccccc32)ccc1Cl` [Compound A64] here?
Answer: significantly increased chemosensitivity

Question: With `COc1cc(S(=O)(=O)n2c(C)nc3ccccc32)ccc1F` [Compound A70] as the compound, how does the “chemosensitivity to mafosfamide” value read?
Answer: significantly increased chemosensitivity

Question: How did the “chemosensitivity to mafosfamide” value turn out when `Cc1nc2ccccc2n1S(=O)(=O)c1ccc(F)cc1` [CB7, 1-[(4-fluorophenyl)sulfonyl]-2-methyl-1H-benzimidazole] was run?
Answer: significantly increased chemosensitivity
